# Test results taken from PubChem BioAssay AID504327 (National Center for Advancing Translational Sciences (NCATS), 2011).
# By UniProt entry, the sequences of proteins in these tests, tags left out.
# UniProt Q92830, whole entry: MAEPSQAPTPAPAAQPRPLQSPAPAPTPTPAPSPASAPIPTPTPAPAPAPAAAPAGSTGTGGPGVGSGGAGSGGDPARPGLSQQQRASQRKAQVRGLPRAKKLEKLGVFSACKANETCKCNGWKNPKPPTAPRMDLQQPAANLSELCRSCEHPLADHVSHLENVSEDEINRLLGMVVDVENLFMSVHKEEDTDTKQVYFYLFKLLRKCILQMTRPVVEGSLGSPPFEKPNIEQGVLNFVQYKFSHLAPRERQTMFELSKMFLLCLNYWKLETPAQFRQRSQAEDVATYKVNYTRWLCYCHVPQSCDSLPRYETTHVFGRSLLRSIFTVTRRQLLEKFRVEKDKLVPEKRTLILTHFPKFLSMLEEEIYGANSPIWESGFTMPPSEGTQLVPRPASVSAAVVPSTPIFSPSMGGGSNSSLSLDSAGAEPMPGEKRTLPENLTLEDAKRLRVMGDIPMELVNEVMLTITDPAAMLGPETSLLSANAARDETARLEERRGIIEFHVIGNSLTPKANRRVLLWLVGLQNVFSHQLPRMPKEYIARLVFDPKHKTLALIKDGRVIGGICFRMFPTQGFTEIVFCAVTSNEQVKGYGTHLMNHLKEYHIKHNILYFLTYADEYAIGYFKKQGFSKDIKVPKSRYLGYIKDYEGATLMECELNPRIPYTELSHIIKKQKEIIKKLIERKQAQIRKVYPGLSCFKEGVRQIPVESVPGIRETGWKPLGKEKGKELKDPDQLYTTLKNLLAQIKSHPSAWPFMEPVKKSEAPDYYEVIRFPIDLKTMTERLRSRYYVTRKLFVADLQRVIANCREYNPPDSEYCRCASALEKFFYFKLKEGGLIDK
# Several values for one entry are separate records, joined by “and”; a condition that tells them apart may be missing. Identical values can stand only once. The entries are a selection whose mix differs from that of the whole data set. Some tests of the compounds listed are not included; inactive here does not mean inactive elsewhere. Results filed as inconclusive are left out. Activity calls are given as the source filed them. Calls come from the whole dose curve; as a rule, active = well fitted inhibition curve with a large enough effect; inconclusive = small, poorly fitted or top-dose-only effect, or another doubt; inactive = no such curve, though single readings can be large or run the other way.
# Target: Histone acetyltransferase KAT2A (Homo sapiens) (UniProt Q92830)
# Assay: qHTS Assay for Inhibitors of GCN5L2
# Details: GCN5L2 HAT assay, ThioGlo1 CoA-SH fluorescence; at 58.9 µM (top of the series)
# % is set by controls: 0 for no effect and ±100 for the full control effect.
row,SMILES,"activity change, negative = inhibition"
1,O=C(NCC1(N2CCCCC2)CCCCC1)c1cccc(Cl)c1,inactive: 0.0698%
2,COc1ccc(C(=O)NCC2(N(C)C)CCCCC2)cc1Cl,inactive: -12.4%
3,COc1cccc(C(=O)NCC2(N3CCCCC3)CCCCC2)c1,inactive: -1.9%
4,COc1ccc(Cl)cc1C(=O)NCC1(N(C)C)CCCCC1,inactive: 2.8%
5,CN(C)C1(CNC(=O)c2ccc(Br)cc2)CCCCC1,inactive: -4.05%
6,CN(C)c1cccc(C(=O)NCC2(N(C)C)CCCCC2)c1,inactive: -4.66%
7,CC(C)Oc1ccc(C(=O)NCC2(N(C)C)CCCCC2)cc1,inactive: -8.39% and inactive: -1.55%
8,Cc1cccc(C(=O)NCC2(N(C)C)CCCCC2)c1,inactive: -6.51%
9,COc1cc(C(=O)NCC2(N(C)C)CCCCC2)cc(OC)c1OC,inactive: -4.79%
10,COc1ccc(Br)c(C(=O)NCC2(N3CCCCC3)CCCCC2)c1,inactive: -2.95%
11,CC(C)COc1ccc(C(=O)NCC2(N(C)C)CCCCC2)cc1,inactive: -5.21%
12,COc1cccc(C(=O)NCC2(N3CCOCC3)CCCCC2)c1,inactive: -5.4%
13,CN(C)C1(CNC(=O)c2ccccc2F)CCCCC1,inactive: -12.1%
14,Cc1ccc(C(=O)NCC2(N3CCCCC3)CCCCC2)cc1,inactive: 1.4%
15,CC(C)N1C(=O)CC2(CCN(CCOC(=O)C(O)(c3ccccc3)c3ccccc3)CC2)C1=O,inactive: -7.96%
16,CCN(CC)CC(C)C(C)OC(=O)C(O)(c1ccccc1)c1ccccc1 (stereo not drawn),inactive: 4.18%
17,CN(C)C1(CNC(=O)c2cccc(Cl)c2)CCCCC1,inactive: -1.63%

row,SMILES,"activity change, negative = inhibition"
1,COc1cc(SC)ccc1C(=O)NCC1(N(C)C)CCCCC1,inactive: -31%
2,CN1[C@@H]2CC[C@H]1CC(OC(=O)C(O)(c1ccccc1)c1ccccc1)C2 (stereo partly drawn),inactive: -0.248%
3,O=C(NCC1(N2CCCCC2)CCCCC1)c1cc([N+](=O)[O-])ccc1Cl,inactive: -6.41%
4,CCN1CCCC(OC(=O)C2(O)c3ccccc3C=Cc3ccccc32)C1 (stereo not drawn),inactive: 1.16%
5,Cc1cc(C(=O)NCC2(N3CCCCC3)CCCCC2)ccc1[N+](=O)[O-],inactive: 3.08%
6,O=C(NCC1(N2CCCCC2)CCCCC1)c1cccc(Br)c1,inactive: -4.45%
7,COc1ccc(C(=O)NCC2(N(C)C)CCCCC2)cc1,inactive: 21.2%
8,CCOc1cccc(C(=O)NCC2(N(C)C)CCCCC2)c1,inactive: -11.2%
9,C=CCN1CCN(CCOC(=O)C(O)(c2ccccc2)c2ccccc2)CC1,inactive: 2.52%
10,O=C(NCC1(N2CCCCC2)CCCCC1)c1cc(F)c(F)cc1Cl,inactive: -1.23%
11,CN1CCCC(OC(=O)C(O)(c2ccccc2)c2ccccc2)C1 (stereo not drawn),inactive: -0.867%
12,CCCCOc1ccccc1C(=O)NCC1(N(C)C)CCCCC1,inactive: -5.75%
13,Cc1ccccc1C(=O)NCC1(N2CCCCC2)CCCCC1,inactive: 2.38%
14,CN(C)C1(CNC(=O)c2ccccc2[N+](=O)[O-])CCCCC1,inactive: -3.49%
15,CN(C)c1ccc(C(=O)NCC2(N(C)C)CCCCC2)cc1,inactive: -2.12%
16,CN(C)C1CCCC1OC(=O)C(O)(c1ccccc1)c1ccccc1 (stereo not drawn),inactive: 0.159%
